In patent publication US20240398768A1, “METHODS OF TREATING SOLID TUMOR USING HETEROAROMATIC MACROCYCLIC ETHER COMPOUNDS” (Nuvalent, Inc., priority 2021, published 2024):

Test system: NIH3T3 cells expressing ROS1 fusions with G2032R
Assay: Anchorage-independent colony formation assay
Type: cell-based
Settings: at 100 nM

Q: For `C[C@@H](Oc1cc(-c2cnn(C3CCNCC3)c2)cnc1N)c1c(Cl)ccc(F)c1Cl` [Crizotinib], which “inhibition of colony formation” value is on record?
A: weaker effects
